Data taken from patent US7847063B2 (Sanwa Kagaku Kenkyusho Co., Ltd., priority 2003, dated 2010).

Sequences of proteins named here, by UniProt entry; tags and fusion partners are left off. Residues count along the entry.
UniProt P43220, 24-463: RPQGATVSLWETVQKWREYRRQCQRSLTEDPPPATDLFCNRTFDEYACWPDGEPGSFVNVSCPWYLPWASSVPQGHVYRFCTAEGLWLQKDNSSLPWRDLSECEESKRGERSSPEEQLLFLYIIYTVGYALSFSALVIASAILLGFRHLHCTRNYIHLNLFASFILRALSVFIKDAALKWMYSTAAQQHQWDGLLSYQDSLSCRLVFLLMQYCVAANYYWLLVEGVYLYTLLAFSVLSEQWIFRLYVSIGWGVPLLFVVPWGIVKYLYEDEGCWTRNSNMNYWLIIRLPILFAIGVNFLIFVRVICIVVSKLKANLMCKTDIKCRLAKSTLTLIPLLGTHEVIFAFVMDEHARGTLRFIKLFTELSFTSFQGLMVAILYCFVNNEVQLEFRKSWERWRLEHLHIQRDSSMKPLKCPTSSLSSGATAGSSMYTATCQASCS

Molecular target: T1, human GLP-1 receptor (Homo sapiens, UniProt P43220)
T1 construct: expressed in transfected cells; host or cells: Chinese hamster ovary CHO-K1 cells
Assay: Cyclic AMP production activity in CHO-K1 cells expressing human GLP-1 receptors
Type: cell-based
Details: compared with native GLP-1; 37° C. 30 min; FIG. 7
Procedure: 10 μl of 5N hydrochloric acid was added to the buffer to stop the incubation.

[Ser^8]-GLP-1 (7-36 amide) [[Ser^8]-GLP-1 (7-36amide), reference compound]
cyclic AMP production activity: same level of cyclic AMP production activity as native GLP-1
